The target of this assay is MMP-1 (Homo sapiens, UniProt P03956). Briefly: In vitro metalloprotease inhibition, fluorogenic MCA peptide substrate. The format is biochemical. Conditions: read-out: MMP-1 IC50; Inhibition Table A.

The chains behind the UniProt entries cited, without tags or fusion partners. Residues count along the entry.
UniProt P03956, 100-469 limits assumed: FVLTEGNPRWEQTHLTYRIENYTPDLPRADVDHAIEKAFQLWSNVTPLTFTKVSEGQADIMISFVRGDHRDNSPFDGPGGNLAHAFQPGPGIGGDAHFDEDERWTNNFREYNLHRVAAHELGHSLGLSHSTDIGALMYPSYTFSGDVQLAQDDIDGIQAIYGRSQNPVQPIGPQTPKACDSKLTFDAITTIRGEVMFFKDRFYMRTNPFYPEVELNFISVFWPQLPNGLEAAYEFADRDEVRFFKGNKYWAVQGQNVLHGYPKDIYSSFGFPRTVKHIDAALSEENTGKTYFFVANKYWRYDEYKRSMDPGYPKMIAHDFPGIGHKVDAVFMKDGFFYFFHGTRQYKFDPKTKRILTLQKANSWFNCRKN

This is an account of results in patent US7115632B1, “Sulfonyl aryl or heteroaryl hydroxamic acid compounds” (priority 1999, dated 2006).

`O=C(O)c1ccccc1S(=O)(=O)N1CCC(Oc2ccc(C(F)(F)F)cc2)CC1`: the IC50 was over 10 µM.

What is called IC50 is the concentration needed to halve the response being measured.
